Measurements from patent publication US6767533B1, “Use of a substance binding with the peripheral benzodiazepin receptor for treating skin stress” (Sanofi-Synthelabo, priority 1998, dated 2004).

By UniProt entry, the sequences of proteins in these tests, tags left out.
UniProt P30536, whole entry: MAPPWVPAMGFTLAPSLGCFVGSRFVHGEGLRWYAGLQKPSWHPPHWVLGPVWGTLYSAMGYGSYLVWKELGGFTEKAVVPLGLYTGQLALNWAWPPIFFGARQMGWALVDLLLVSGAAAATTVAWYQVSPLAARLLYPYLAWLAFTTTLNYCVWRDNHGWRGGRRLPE

Target: T1, peripheral benzodiazepine receptor (PBR) (Homo sapiens, UniProt P30536)
T1 construct: the peripheral receptor borne by the keratinocytes; host or cells: A-431 human epidermoid carcinoma keratinocyte line
Experiment: Binding studies on keratinocyte line A-431 by displacement of [3H]-PK11195

With `CCC(C)N(C)C(=O)c1cc2ccccc2c(-c2ccccc2Cl)n1` (stereo not shown) [[^3H]-PK11195] the Kd was 1.5 nM.
